# Values quoted from earlier work as cited in US20120190751A1, “COMPOUNDS FOR TREATMENTS OF INFLAMMATION” (ANA-MAR AB, priority 2009, published 2012).
# By UniProt entry, the sequences of proteins in these tests, tags left out.
# UniProt P41595, whole entry: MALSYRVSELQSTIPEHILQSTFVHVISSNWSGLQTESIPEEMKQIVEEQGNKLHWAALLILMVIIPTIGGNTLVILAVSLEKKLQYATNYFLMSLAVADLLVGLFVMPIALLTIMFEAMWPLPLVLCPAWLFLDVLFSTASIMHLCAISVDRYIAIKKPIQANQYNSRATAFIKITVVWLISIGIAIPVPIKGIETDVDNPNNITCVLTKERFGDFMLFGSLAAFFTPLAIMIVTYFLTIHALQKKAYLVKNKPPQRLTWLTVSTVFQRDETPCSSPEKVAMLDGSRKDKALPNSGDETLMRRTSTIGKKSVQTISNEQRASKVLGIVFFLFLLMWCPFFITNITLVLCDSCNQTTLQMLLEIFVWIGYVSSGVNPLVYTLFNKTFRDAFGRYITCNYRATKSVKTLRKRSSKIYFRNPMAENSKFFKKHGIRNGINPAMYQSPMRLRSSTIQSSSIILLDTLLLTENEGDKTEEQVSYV
# Target: 5HT2B receptor (Homo sapiens, UniProt P41595)
# Settings: 5HT2B receptor antagonists, Table 1; cited from earlier work
row,Structure (SMILES),Affinity
1,"CN1CCN2c3ccccc3Cc3ccccc3C2C1 (racemic) [mianserin, (±)-2-methyl-1,2,3,4,10,14b-hexahydrodibenzo[c,f]pyrazino[1,2-a]-azepine]",7.9-8.8 pKi
2,CSc1ccc2c(c1)C(N1CCN(C)CC1)Cc1ccccc1S2 (stereo not drawn) [methiothepin],8.7-9.2 pKi
3,"O=c1n(CCCN2CCN(c3cccc(Cl)c3)CC2)nc2ccccn12 [trazodone, 8-[3-[4-(3-chlorophenyl)piperazin-1-yl]propyl]-6,8,9-triazabicyclo[4.3.0]nona-2,4,9-trien-7-one]",7.1 pKi
